pEC50: −log10 of the molar value.
What was measured:
[1] = molecular target: T1, human calcitonin receptor (hCTR2) (Homo sapiens, UniProt P30988); assay: hCTR2 cAMP assay (AlphaScreen) in COS7 cells; format: cell-based; conditions: cAMP induction, COS7 cells expressing hCTR2; Table 1
T1 construct: expressed in transfected cells
T1 sequence (P30988 25-474): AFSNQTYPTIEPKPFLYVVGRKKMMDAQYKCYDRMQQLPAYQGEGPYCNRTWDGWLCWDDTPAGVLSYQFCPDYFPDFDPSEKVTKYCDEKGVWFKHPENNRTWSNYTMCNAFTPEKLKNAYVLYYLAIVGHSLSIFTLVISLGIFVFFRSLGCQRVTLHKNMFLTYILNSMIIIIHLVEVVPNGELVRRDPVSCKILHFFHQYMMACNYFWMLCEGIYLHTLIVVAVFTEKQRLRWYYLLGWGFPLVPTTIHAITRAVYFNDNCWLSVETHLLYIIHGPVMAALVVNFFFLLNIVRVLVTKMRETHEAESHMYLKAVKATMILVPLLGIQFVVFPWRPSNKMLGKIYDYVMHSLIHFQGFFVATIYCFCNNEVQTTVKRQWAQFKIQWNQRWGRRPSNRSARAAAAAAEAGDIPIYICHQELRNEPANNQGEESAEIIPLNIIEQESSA
Excerpt: (§1) The cell line COS7, originating from African Green Monkey kidney fibroblast cells, was used for establishment of the stable cell lines described below. The COS7 cellular background was used due to it being RAMP naïve, and as such it provides the best available system for testing of the monomeric hCTR and different heterodimeric amylin receptor subtypes functionally generated by introduction of the individual RAMPs.
A cell line expressing the human calcitonin receptor (hCTR2) was generated in the COS7 cellular background as stable clones. In brief, hCTR2 (GI: 4502547) was amplified by PCR using primers encoding terminal restriction sites for subcloning. The 5′-end primers additionally encoded a near Kozak consensus sequence to ensure efficient translation. The fidelity of the DNA encoding the receptor was confirmed by DNA sequencing. The PCR products encoding the receptor were subcloned into a mammalian expression vector containing a neomycin (G418) resistance marker. The mammalian expression vector encoding the receptor was transfected into COS7 cells by a standard liposome transfection method. […]
(§2) In vitro activity of test peptides at the hCTR2 and hAMYR3 receptors was assessed by measuring the induction of cAMP following stimulation of the receptor using the AlphaScreen® cAMP Assay kit from Perkin-Elmer. […]

[2] = molecular target: T2, human amylin receptor 3 (hAMYR3), hCTR2 co-expressed with hRAMP3 (Homo sapiens, UniProt O60896+P30988); assay: hAMYR3 cAMP assay (AlphaScreen) in COS7 cells; format: cell-based; conditions: cAMP induction, COS7 cells expressing hAMYR3; Table 1
T2 construct: expressed in transfected cells
T2 sequence (P30988 25-474): T1 sequence (P30988 25-474)
T2 sequence (O60896 24-148 partner): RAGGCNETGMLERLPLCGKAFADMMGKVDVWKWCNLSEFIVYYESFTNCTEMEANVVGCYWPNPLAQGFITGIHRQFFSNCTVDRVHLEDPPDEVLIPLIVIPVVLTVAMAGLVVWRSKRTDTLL
Excerpt: as §1
A cell line expressing the human amylin receptor 3 (hAMYR3) was generated in the COS7 cellular background as stable clones. In brief, hCTR2 (GI:4502547) and hRAMP3 (GI:118572586) were amplified by PCR using primers encoding terminal restriction sites for subcloning. The 5′-end primers additionally encoded a near Kozak consensus sequence to ensure efficient translation. The fidelity of the DNA encoding the receptor was confirmed by DNA sequencing. The PCR products encoding the receptor were subcloned into a proprietary tri-cistronic mammalian expression vector with RAMP3, hCTR2 and neomycin (G418) resistance marker. The mammalian expression vector encoding the receptor was transfected into COS7 cells by a standard liposome transfection method. […]
as §2

Work on `CC[C@H](C)[C@H](NC(=O)[C@@H]1CCCN1C(=O)CNC(=O)[C@H](Cc1ccccc1)NC(=O)[C@H](CC(N)=O)NC(=O)[C@H](CC(N)=O)NC(=O)[C@H](CO)NC(=O)[C@H](CO)NC(=O)[C@H](Cc1c[nH]cn1)NC(=O)[C@@H](NC(=O)[C@H](CC(C)C)NC(=O)[C@H](Cc1ccccc1)NC(=O)[C@H](CC(N)=O)NC(=O)[C@H](C)NC(=O)[C@H](CC(C)C)NC(=O)[C@H](CCCNC(=N)N)NC(=O)[C@H](CCC(N)=O)NC(=O)[C@@H](NC(=O)[C@H](C)NC(=O)[C@@H]1CSSC[C@H](NC(=O)[C@@H](N)CCCCN)C(=O)N[C@@H](CC(N)=O)C(=O)N[C@@H]([C@@H](C)O)C(=O)N[C@@H](C)C(=O)N[C@@H]([C@@H](C)O)C(=O)N1)[C@@H](C)O)C(C)C)C(=O)N[C@@H](CC(C)C)C(=O)N1CCC[C@H]1C(=O)N1CCC[C@H]1C(=O)N[C@H](C(=O)N[C@@H](CC(N)=O)C(=O)N[C@H](C(=O)NCC(=O)N[C@@H](CO)C(=O)N[C@@H](CC(N)=O)C(=O)N[C@H](C(=O)N[C@@H](Cc1ccc(O)cc1)C(N)=O)[C@@H](C)O)C(C)C)[C@@H](C)O` [Pramlintide, reference compound] yielded a pEC50 [1] of 8.85 and a pEC50 [2] of 9.64.

Source: patent US20210115104A1, “AMYLIN ANALOGUES” (Zealand Pharma A/S, priority 2015, published 2021)
